Laboratory results: patent publication US20260384450A1, “MACROCYCLIC AMINOPYRIDINE COMPOUNDS AS EGFR INHIBITORS” (published 2026)

The chains behind the UniProt entries cited, without tags or fusion partners. Where a name states a change or a piece, a line headed by the entry shows the natural chain unless it says otherwise. A line that says so, or that is headed by a name, gives the form on record, which may keep a tag or linker. Residues count along the entry.
UniProt P00533, 25-1210 limits assumed: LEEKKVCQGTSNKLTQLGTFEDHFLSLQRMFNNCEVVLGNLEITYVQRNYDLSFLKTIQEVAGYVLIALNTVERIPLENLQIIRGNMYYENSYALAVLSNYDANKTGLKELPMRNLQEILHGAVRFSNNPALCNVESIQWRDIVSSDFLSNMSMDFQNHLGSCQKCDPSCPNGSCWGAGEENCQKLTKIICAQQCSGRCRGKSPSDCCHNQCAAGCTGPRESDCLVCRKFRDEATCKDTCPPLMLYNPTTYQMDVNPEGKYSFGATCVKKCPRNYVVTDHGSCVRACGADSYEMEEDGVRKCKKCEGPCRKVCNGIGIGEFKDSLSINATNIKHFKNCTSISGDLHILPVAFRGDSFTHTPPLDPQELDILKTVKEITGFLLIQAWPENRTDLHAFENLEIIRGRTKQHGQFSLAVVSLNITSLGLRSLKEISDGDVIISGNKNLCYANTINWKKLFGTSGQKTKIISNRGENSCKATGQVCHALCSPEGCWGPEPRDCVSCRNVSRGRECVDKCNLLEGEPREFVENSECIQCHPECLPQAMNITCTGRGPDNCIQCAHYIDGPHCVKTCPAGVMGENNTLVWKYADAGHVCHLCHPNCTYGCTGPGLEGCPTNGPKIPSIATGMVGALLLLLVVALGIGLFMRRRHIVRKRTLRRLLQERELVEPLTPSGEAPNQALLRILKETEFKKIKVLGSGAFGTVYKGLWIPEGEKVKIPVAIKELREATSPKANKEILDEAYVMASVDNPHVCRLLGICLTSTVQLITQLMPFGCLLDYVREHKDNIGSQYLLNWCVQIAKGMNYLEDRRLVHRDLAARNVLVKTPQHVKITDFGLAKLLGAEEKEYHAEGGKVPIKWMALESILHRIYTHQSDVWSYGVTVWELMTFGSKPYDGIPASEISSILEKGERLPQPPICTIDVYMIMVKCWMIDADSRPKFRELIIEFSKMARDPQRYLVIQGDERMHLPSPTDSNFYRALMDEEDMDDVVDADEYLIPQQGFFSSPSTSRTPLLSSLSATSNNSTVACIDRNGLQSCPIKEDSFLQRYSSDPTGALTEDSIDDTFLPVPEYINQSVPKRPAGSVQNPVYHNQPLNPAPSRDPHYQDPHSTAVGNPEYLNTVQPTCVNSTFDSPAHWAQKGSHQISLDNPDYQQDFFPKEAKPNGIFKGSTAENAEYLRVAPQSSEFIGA
UniProt P00533, 25-1210 C797S/L858R limits assumed: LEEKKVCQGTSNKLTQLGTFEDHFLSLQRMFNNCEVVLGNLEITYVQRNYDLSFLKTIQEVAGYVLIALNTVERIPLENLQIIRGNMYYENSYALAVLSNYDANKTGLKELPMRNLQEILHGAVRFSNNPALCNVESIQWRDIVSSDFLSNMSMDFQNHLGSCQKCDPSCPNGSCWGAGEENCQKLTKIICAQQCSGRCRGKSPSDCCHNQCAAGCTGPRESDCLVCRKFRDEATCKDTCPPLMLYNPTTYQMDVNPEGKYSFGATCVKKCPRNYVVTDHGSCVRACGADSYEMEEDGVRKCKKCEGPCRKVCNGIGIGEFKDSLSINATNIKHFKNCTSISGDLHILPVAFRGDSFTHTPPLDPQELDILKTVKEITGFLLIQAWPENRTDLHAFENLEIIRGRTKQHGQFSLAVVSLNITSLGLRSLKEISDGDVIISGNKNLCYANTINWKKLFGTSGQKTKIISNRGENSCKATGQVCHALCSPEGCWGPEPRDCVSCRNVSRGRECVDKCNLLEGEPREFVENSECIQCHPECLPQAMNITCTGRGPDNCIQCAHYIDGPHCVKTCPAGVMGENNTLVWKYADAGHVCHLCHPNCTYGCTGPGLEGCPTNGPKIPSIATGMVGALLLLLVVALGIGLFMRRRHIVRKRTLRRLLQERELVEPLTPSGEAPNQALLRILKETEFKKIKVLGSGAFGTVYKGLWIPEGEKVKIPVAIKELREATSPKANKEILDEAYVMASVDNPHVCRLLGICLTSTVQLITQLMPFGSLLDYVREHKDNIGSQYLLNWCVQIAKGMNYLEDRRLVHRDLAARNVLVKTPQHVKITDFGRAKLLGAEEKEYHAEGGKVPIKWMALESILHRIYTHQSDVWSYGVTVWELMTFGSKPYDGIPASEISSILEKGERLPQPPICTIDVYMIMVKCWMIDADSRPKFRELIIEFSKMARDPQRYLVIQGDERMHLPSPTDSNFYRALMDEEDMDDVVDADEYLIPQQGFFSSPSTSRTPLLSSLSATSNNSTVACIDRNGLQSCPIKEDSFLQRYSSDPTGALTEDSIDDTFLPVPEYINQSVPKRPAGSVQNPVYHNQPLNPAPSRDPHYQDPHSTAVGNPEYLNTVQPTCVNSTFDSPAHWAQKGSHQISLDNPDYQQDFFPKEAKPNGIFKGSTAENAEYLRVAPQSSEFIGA
UniProt P00533, 25-1210 T790M/C797S/L858R limits assumed: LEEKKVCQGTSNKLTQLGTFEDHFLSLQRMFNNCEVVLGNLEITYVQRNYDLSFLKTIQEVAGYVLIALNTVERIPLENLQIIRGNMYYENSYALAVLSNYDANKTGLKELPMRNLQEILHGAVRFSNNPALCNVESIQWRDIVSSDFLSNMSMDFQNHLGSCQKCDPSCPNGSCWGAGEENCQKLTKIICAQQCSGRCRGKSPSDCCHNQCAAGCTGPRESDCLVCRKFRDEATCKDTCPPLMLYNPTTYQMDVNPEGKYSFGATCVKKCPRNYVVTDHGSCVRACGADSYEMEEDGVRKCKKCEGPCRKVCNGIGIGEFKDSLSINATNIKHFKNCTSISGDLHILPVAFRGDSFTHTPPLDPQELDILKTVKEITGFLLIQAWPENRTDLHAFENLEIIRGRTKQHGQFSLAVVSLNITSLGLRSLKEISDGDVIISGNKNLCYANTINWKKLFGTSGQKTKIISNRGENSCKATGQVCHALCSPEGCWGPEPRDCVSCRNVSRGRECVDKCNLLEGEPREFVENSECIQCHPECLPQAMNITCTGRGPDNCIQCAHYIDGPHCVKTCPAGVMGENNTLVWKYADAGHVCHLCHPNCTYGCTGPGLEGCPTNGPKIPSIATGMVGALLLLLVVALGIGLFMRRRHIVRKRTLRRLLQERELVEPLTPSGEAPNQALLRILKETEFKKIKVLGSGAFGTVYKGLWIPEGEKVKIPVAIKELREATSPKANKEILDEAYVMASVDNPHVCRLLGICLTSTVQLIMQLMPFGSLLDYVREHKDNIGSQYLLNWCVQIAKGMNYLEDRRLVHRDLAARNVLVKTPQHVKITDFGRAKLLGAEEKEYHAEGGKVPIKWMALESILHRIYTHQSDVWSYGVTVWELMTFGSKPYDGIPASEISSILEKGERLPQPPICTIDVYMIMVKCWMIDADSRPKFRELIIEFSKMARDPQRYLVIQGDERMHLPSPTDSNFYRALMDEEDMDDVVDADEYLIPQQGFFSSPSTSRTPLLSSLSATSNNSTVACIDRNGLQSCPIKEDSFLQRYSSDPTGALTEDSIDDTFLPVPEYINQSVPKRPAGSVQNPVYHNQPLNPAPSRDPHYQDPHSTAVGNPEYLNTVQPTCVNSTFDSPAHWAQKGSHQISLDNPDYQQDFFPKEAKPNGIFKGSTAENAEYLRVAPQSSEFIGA
UniProt P00533, with tags, fused parts or gaps DEL746-750/C797S limits assumed: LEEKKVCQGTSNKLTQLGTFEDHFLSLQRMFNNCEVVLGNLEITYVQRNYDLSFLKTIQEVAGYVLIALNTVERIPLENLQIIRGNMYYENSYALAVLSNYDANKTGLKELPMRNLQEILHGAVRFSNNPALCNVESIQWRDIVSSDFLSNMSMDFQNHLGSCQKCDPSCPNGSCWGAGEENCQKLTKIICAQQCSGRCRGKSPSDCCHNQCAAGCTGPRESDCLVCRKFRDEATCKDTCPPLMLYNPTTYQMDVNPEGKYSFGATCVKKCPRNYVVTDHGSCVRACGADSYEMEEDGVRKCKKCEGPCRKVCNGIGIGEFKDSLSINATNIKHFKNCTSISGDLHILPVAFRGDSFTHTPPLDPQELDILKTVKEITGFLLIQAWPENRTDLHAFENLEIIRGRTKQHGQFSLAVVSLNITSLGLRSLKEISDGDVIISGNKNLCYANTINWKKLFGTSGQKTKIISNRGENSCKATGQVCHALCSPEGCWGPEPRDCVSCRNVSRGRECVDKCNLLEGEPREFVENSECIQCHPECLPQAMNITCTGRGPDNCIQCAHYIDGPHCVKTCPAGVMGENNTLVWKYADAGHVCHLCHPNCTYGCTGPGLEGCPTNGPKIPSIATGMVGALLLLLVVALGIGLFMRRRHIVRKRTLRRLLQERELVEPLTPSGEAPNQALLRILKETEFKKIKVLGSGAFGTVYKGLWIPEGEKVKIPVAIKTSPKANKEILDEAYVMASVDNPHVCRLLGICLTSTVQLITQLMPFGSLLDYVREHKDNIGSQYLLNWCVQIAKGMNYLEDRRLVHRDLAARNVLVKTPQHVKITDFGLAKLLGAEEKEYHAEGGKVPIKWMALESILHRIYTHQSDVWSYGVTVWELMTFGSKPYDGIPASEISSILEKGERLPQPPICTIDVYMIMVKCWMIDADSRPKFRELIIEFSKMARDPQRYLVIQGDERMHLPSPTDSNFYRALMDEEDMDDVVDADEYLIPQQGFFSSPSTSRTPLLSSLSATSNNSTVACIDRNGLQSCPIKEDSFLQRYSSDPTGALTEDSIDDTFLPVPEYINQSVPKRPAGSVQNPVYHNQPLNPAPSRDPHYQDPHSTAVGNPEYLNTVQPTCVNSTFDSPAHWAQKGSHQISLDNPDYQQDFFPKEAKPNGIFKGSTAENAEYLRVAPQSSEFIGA
UniProt P00533, with tags, fused parts or gaps DEL746-750/T790M/C797S limits assumed: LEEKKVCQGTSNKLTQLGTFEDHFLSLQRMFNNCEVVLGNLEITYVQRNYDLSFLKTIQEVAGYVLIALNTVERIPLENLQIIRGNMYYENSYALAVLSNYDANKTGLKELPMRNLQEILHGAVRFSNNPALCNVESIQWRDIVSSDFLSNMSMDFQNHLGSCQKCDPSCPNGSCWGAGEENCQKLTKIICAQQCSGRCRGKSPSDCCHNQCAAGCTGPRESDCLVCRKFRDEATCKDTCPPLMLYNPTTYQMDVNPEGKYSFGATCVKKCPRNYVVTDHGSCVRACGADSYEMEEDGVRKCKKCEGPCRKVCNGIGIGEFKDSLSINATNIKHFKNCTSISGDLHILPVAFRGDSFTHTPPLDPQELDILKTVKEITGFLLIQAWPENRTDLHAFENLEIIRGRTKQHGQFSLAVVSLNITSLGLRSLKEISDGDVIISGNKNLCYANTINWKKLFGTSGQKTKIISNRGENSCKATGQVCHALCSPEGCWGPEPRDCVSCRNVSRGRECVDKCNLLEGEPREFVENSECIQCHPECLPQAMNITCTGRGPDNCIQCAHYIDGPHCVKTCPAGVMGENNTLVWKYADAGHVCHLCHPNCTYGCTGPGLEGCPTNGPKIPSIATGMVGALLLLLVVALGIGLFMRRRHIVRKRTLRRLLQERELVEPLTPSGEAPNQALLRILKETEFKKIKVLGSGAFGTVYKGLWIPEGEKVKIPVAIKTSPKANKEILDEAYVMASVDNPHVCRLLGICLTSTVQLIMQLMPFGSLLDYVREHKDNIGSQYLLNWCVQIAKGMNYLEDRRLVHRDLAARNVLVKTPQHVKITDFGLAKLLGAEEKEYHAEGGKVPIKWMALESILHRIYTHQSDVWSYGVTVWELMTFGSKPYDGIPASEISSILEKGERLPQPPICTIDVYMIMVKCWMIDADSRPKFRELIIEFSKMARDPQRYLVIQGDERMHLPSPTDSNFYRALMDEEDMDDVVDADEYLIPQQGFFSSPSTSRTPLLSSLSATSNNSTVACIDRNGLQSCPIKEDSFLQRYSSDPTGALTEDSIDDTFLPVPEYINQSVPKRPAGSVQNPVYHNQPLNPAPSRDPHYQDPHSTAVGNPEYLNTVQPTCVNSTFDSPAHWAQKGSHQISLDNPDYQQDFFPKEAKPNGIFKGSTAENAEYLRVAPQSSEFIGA

Experiments:
[1] = molecular target: EGFR D19TMCS (del19/T790M/C797S) (Homo sapiens, UniProt P00533, C797S/DEL746-750/T790M); test: Biochemical EGFR kinase assay (Lance Ultra TR-FRET), triple mutant del19/T790M/C797S
[2] = molecular target: EGFR LRTMCS (L858R/T790M/C797S) (Homo sapiens, UniProt P00533, C797S/L858R/T790M); test: Biochemical EGFR kinase assay (Lance Ultra TR-FRET), triple mutant L858R/T790M/C797S
EGFR D19CS (del19/C797S) = EGFR D19CS (del19/C797S) (Homo sapiens, UniProt P00533, C797S/DEL746-750); test: Biochemical EGFR kinase assay (Lance Ultra TR-FRET), double mutant del19/C797S
EGFR LRCS (L858R/C797S) = EGFR LRCS (L858R/C797S) (Homo sapiens, UniProt P00533, C797S/L858R); test: Biochemical EGFR kinase assay (Lance Ultra TR-FRET), double mutant L858R/C797S
EGFR WT = EGFR WT (Homo sapiens, UniProt P00533); test: Biochemical EGFR kinase assay (Lance Ultra TR-FRET), wildtype
[3] = read-out: EGFR D19TMCS IC50, ATP 1 mM
[4] = read-out: EGFR D19TMCS IC50, ATP Km
[5] = read-out: EGFR LRTMCS IC50, ATP 1 mM
[6] = read-out: EGFR LRTMCS IC50, ATP Km
[7] = read-out: EGFR D19CS IC50, ATP 1 mM
[8] = read-out: EGFR D19CS IC50, ATP Km
[9] = read-out: EGFR LRCS IC50, ATP 1 mM
[10] = read-out: EGFR LRCS IC50, ATP Km
[11] = read-out: EGFR WT IC50, ATP 1 mM
[12] = read-out: IC50, EGFR D19TMCS, Km, ATP at Km, EGFR del19/T790M/C797S
[13] = read-out: IC50, EGFR LRTMCS, 1 mM, ATP 1 mM, EGFR L858R/T790M/C797S
[14] = read-out: IC50, EGFR LRTMCS, Km, ATP at Km, EGFR L858R/T790M/C797S
[15] = read-out: IC50, EGFR-D19CS, 1 mM, ATP 1 mM, EGFR del19/C797S
[16] = read-out: IC50, EGFR-D19CS, Km, ATP at Km, EGFR del19/C797S
[17] = read-out: IC50, EGFR-LRCS, 1 mM, ATP 1 mM, EGFR L858R/C797S
[18] = read-out: IC50, EGFR-LRCS, Km, ATP at Km, EGFR L858R/C797S
[19] = read-out: IC50, EGFR WT, 1 mM, ATP 1 mM, EGFR wildtype
[20] = read-out: IC50, EGFR WT, Km, ATP at Km, EGFR wildtype

| IC50 [1, 3] [nM] | IC50 [1, 4] [nM] | IC50 [2, 5] [nM] | IC50 [2, 6] [nM] | IC50 (EGFR D19CS (del19/C797S); [7]) [nM] | IC50 (EGFR D19CS (del19/C797S); [8]) [nM] | IC50 (EGFR LRCS (L858R/C797S); [9]) [nM] | IC50 (EGFR LRCS (L858R/C797S); [10]) [nM] | IC50 (EGFR WT; [11]) [nM] | IC50 (EGFR WT; read-out: EGFR WT IC50, ATP Km) [nM] | IC50 [1, 12] [nM] | IC50 [2, 13] [nM] | IC50 [2, 14] [nM] | IC50 (EGFR D19CS (del19/C797S); [15]) [nM] | IC50 (EGFR D19CS (del19/C797S); [16]) [nM] | IC50 (EGFR LRCS (L858R/C797S); [17]) [nM] | IC50 (EGFR LRCS (L858R/C797S); [18]) [nM] | IC50 (EGFR WT; [19]) [nM] | IC50 (EGFR WT; [20]) [nM] | Compound |
| --- | --- | --- | --- | --- | --- | --- | --- | --- | --- | --- | --- | --- | --- | --- | --- | --- | --- | --- | --- |
| 10 to 100 | < 10 | > 1000 | < 10 | > 1000 | > 1000 | > 1000 | 100 to 1000 | > 1000 | 100 to 1000 | – | – | – | – | – | – | – | – | – | Cn1nc(-c2cnc3cc2NC[C@@H](F)COc2c(cnn2C)-c2nccc(n2)N3)cc1C(F)(F)F |
| < 10 | < 10 | < 10 | < 10 | 100 to 1000 | 10 to 100 | 100 to 1000 | 10 to 100 | > 1000 | 100 to 1000 | – | – | – | – | – | – | – | – | – | Cn1nc(-c2cnc3cc2NC[C@H](F)COc2c(cnn2C)-c2nccc(n2)N3)cc1C(F)(F)F |
| < 10 | < 10 | < 10 | < 10 | < 10 | < 10 | 10 to 100 | < 10 | > 1000 | < 10 | – | – | – | – | – | – | – | – | – | C[C@H]1CCOc2c(cnn2C)-c2nccc(n2)Nc2cc(c(-c3ncc(CN4CCC(F)CC4)cc3F)cn2)N1 |
| – | – | – | – | – | – | – | – | – | – | < 10 | < 10 | < 10 | 10 to 100 | < 10 | 10 to 100 | < 10 | > 1000 | < 10 | Cc1nn(C)c2c1-c1nccc(n1)Nc1cc(c(-c3ncc(CN4CCC(C5(O)CC5)CC4)cc3F)cn1)NCC[C@H](C)O2 |
| – | – | – | – | – | – | – | – | – | – | < 10 | < 10 | < 10 | < 10 | < 10 | 10 to 100 | < 10 | > 1000 | < 10 | Cc1nn(C)c2c1-c1nccc(n1)Nc1cc(c(-c3cnc(CN4CCC(F)(F)CC4)cn3)cn1)NCC[C@H](C)O2 |
| – | – | – | – | – | – | – | – | – | – | 10 to 100 | 10 to 100 | < 10 | 10 to 100 | 10 to 100 | 100 to 1000 | < 10 | > 1000 | 10 to 100 | Cc1nn(C)c2c1-c1nccc(n1)Nc1cc(c(-c3ncc(CN4CCC(F)(F)CC4)cc3F)cn1)N[C@@H](C)CCO2 |
| – | – | – | – | – | – | – | – | – | – | < 10 | 10 to 100 | < 10 | 100 to 1000 | 10 to 100 | > 1000 | < 10 | > 1000 | 100 to 1000 | Cc1nn(C)c2c1-c1nccc(n1)Nc1cc(c(-c3cnc(S(C)(=O)=O)cn3)cn1)N[C@@H](C)CCO2 |
| – | – | – | – | – | – | – | – | – | – | < 10 | < 10 | < 10 | 10 to 100 | < 10 | 10 to 100 | < 10 | > 1000 | 10 to 100 | Cc1nn(C)c2c1-c1nccc(n1)Nc1cc(c(-c3ncc(CN4CC[C@@H](O)C4)cc3F)cn1)NCC[C@H](C)O2 |
| – | – | – | – | – | – | – | – | – | – | < 10 | < 10 | < 10 | 10 to 100 | < 10 | 10 to 100 | < 10 | > 1000 | 10 to 100 | Cc1nn(C)c2c1-c1nccc(n1)Nc1cc(c(-c3ncc(CN4C[C@H](CS(C)(=O)=O)[C@@H]4C)cc3F)cn1)N[C@@H](C)CCO2 |
| < 10 | < 10 | < 10 | < 10 | 10 to 100 | < 10 | 10 to 100 | < 10 | > 1000 | 10 to 100 | – | – | – | – | – | – | – | – | – | C[C@H]1CCNc2cc(ncc2-c2ccc(C(C)(O)C(F)(F)F)cn2)Nc2ccnc(n2)-c2cnn(C)c2O1 (stereo partly drawn) |
| < 10 | < 10 | 10 to 100 | < 10 | > 1000 | 10 to 100 | > 1000 | 10 to 100 | > 1000 | 10 to 100 | – | – | – | – | – | – | – | – | – | Cn1ncc2c1OC[C@@H](F)CNc1cc(ncc1-c1ccn(C(F)F)n1)Nc1ccnc-2n1 |
| < 10 | < 10 | < 10 | < 10 | < 10 | < 10 | 10 to 100 | < 10 | > 1000 | 100 to 1000 | – | – | – | – | – | – | – | – | – | Cc1nn(C)c2c1-c1nccc(n1)Nc1cc(c(-c3ccc(C(C)(C)O)cn3)cn1)N[C@@H](C)CCO2 |

Where two headings read alike, the source gives them in different places.
